Our source for the EC50 of CFI in cofactor assay in the presence of 200 µM BAM1-42 (Lot 2, aged 7 days without sonication) and inhibition of CFI bioactivity, BAM 1-42 Lot 1 values is patent publication US20160139118A1, “NOVEL ASSAY” (GLAXOSMITHKLINE INTELLECTUAL PROPERTY (NO.2) LIMITED, priority 2013, published 2016).

By UniProt entry, the sequences of proteins in these tests, tags left out. Residues count along the entry.
UniProt P05156, 19-583: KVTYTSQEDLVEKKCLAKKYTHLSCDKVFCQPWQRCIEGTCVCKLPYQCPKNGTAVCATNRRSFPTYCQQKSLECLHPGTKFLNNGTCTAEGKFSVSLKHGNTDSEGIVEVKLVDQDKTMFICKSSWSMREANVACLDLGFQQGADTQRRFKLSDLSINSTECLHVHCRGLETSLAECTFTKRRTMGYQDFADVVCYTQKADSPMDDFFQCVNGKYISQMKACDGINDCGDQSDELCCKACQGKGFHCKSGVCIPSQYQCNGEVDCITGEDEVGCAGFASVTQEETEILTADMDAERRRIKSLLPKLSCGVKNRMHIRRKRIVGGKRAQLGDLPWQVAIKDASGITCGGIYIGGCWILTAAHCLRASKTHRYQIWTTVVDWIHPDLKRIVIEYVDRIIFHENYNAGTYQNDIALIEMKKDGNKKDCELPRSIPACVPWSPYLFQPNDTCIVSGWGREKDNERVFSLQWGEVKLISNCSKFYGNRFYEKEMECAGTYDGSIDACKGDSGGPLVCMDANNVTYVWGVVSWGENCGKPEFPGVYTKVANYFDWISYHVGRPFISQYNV

The target of this assay is Complement factor I, purified human serum protein (Complement Technology) (human) (UniProt P05156). As to the kind of experiment: cell-based or functional assay.

For “Amyloid Beta-Protein (1-42) (from UniProt P05067 672-713) (peptide)”, the EC50 of CFI in cofactor assay in the presence of 200 µM BAM1-42 (Lot 2, aged 7 days without sonication) worked out at 3320 ng/mL; the inhibition of CFI bioactivity, BAM 1-42 Lot 1 at day 3 and day 8 came to 100%.
